Measured values as given in patent US12384753B2, “17-beta-hydroxysteroid dehydrogenase type 13 inhibitors and methods of use thereof” (Enanta Pharmaceuticals, Inc., priority 2021, dated 2025).

Chains of the proteins cited; added tags and fusions are not shown. Residues count along the entry.
UniProt Q7Z5P4, 20-300 limits assumed: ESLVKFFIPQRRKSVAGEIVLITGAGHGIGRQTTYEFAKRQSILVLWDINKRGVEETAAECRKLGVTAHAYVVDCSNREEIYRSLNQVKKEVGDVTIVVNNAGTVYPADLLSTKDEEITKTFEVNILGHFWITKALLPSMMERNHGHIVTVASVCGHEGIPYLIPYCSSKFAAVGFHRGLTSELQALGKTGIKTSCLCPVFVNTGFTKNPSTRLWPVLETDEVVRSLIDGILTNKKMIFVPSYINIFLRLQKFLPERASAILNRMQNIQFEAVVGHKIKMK

Biological target: Recombinant human HSD17B13 (Homo sapiens (Human), UniProt Q7Z5P4)
Experiment: HSD17B13 rapid-fire mass spectrometry assay (RF/MS assay)
Details: inhibition of HSD17B13; LTB4 10 μM, NAD+ 0.5 mM, RT 3 h; IC50 ranges A-E
Source text: HSD17B13 rapid-fire mass spectrometry assay (RF/MS assay). Recombinant human HSD17B13 was expressed and purified from sf9 cells at Charles River Labs (Saffron Walden, UK). Leukotriene B4 (Catalog #71160-24-2) and 12-oxoleukotriene B4 (Catalog #20140) were purchased from Cayman Chemicals (Ann Arbor, Michigan.). NAD+ (Catalog #N8285), BSA (Catalog #A7030), DMSO (Catalog #D2650), and Tween-20 (Catalog #11332465001) were purchased from Sigma (St. Louis, MO). Formic acid (Catalog #28905) was from ThermoFisher Scientific and 384 deep well PP microplates (Catalog #784261) were from Greiner Bio-One. In a typical IC50 assay performed in a 384w PP microplate, test compounds (0-100 μM) were incubated with HSD17B13 (80 nM), LTB4 (10 μM), and NAD^+ (0.5 mM) in 10 μL assay buffer (20 mM Tris (pH 7.5), BSA (0.005%), and Tween-20 (0.01%)) at RT for 3 h. The assays were quenched by adding 20 μL of 0.15% aqueous formic acid and the plates were frozen at −80° C. RF/MS analysis was performed at PureHoney Technologies (Billerica, MA) on a RapidFire RF300 system (Agilent Technologies, Inc.) coupled to an API 4000 triple quadrupole mass spectrometer (Sciex) equipped with Agilent RapidFire cartridge type A (C4). The mobile phase was 0.09% formic acid and 0.01% trifluoracetic acid in water (Buffer A) and 0.09% formic acid and 0.01% trifluoracetic acid in 80% aqueous acetonitrile (Buffer B). The RapidFire method conditions were the following: 250 ms aspirate, 3000 ms load/desalt, 4000 ms elute, and 500 ms re-equilibrate. RF-MS/MS was performed in negative polarity (−4500 V), the source temperature was 650° C., and gas 1 and gas 2 settings for nitrogen were set to 50. The curtain gas and collision gas were also nitrogen and were set to 20 and 12, respectively. Leukotriene B4 (335.3) and 12-oxoLeukotriene B4 (333.3) SRM transitions were optimized with Discovery Quant software and extracted ion counts for these analytes were determined.
Data Analysis. HSD17B13 enzyme activity was measured as percent conversion of extracted ion counts and normalized to high and low controls to determine percent residual activity at various concentrations of test compounds. Data were fitted to normalized activity (variable slope) versus concentration fit in GraphPad Prism 7 to determine IC50. All experiments were run in duplicates.
By using above method, the inhibition of HSD17B13 was evaluated for the compounds of Formula (I). IC50 ranges are as follows: A=IC50<0.100 μM; B=0.100 μM<IC50<0.500 μM; C=0.500 μM<IC50<1 μM; D=1 μM<IC50<100 μM; E=IC50>100 μM

CN(c1ccc(C(=O)O)cc1N)S(=O)(=O)c1csc(-c2ccc(C3CCC(C)(C)CC3)cc2C(F)(F)F)n1
IC50: 1000 to 100000 nM

COc1cc(C(=O)O)c(F)cc1NS(=O)(=O)c1csc(-c2ccc([C@H]3CC[C@@H](C(F)(F)F)CC3)c(OC)c2F)n1
IC50: < 100 nM

CC[C@H]1CC[C@H](c2ccc(-c3cccc(S(=O)(=O)Nc4ccc(C(=O)O)cc4OC)c3F)cc2)CC1
IC50: 100 to 500 nM

COc1cc(C(=O)O)c(F)cc1NS(=O)(=O)c1cnn(-c2ccc(-c3ccc(C45CC6CC(CC(C6)C4)C5)cc3)cc2)c1
IC50: 500 to 1000 nM

COc1cc(C(=O)O)c(F)cc1NS(=O)(=O)c1csc(-c2ccc(-c3ccc(C(F)(F)C(F)(F)F)cc3)c(OC(C)C)c2F)n1
IC50: < 100 nM

COc1cc(C(=O)O)c(F)cc1NS(=O)(=O)c1csc(-c2ccc(-c3ccc(C(F)(F)C(F)(F)F)cc3)c(OC)c2F)n1
IC50: < 100 nM
